Experimental data reported in US8765481B2, “Method for detecting peroxide explosives” (dated 2014).

Experiments:
[1] = Solubility of HMTD in ionic liquids (content via 1H NMR); settings: for rel. HMTD integral: 1H NMR, sum of the two HMTD proton signals after normalization of an IL methyl group to 3; for C[HMTD]: solubility of HMTD in the ionic liquid
[2] = solubility of TATP in the ionic liquid

Row | Substance | rel. HMTD integral [1] | C[HMTD] [1] | C[TATP] [2]
1 | 1-Butyl-3-methylpyrolidinium bis(trifluoromethane)sulfonimide | 0.55 | 2.26 wt.-% | –
2 | 1-Ethyl-3-methylimidazolium diethylphosphate | 0.14 | 0.92 wt.-% | –
3 | 1-butyl-3-methylimidazolium bis(trifluoromethane) sulfonimide | – | – | 0.94 wt.-%
4 | 1-ethyl-3-methylimidazolium bis(trifluoromethane) sulfonimide | 0.54 | 2.39 wt.-% | 0.38 wt.-%
5 | 1-hexyl-3-methylimidazolium bis(trifluoromethane)sulfonimide | 1.17 | 4.53 wt.-% | 0.86 wt.-%
6 | N-hexylpyridinium bis(trifluoromethane)sulfonimide | 0.54 | 2.11 wt.-% | 0.92 wt.-%
